Literature values as cited in US20060217315A1, “Method of controlled ovarian hyperstimulation and pharmaceutical kit for use in such method” (priority 2001, published 2006).

Details: cited from earlier work

Row | Substance | in vivo half-life (t1/2) [h]
1 | LH isolated from urine: luteinising hormone isolated from female urine | 0.167 to 0.333
2 | recLH: LH obtained from a recombinant cell line | 12 to 13
